Measurements taken from PubChem BioAssay AID651710 (Broad Institute, 2012).
The entries are a selection whose mix differs from that of the whole data set. Activity calls are given as the source filed them.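 The calls were made as follows: active = every replicate showing at least 50% inhibition; inconclusive = mean inhibition at least 50% but not in every replicate; inactive = the rest.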

Amino acid sequences for entries named in this document (tags omitted).
UniProt P43351, whole entry: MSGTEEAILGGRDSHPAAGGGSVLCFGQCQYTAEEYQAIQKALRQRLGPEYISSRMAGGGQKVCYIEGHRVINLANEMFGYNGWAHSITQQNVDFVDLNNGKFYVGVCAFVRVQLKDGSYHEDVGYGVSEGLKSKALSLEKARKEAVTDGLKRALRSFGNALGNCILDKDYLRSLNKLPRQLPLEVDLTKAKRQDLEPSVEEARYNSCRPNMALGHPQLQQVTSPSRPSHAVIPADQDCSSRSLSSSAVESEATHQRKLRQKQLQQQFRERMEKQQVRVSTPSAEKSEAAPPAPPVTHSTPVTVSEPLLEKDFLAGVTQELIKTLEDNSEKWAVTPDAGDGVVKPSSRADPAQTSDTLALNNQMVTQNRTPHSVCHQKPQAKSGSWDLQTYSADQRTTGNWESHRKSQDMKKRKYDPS

Each compound was assayed against DNA repair protein RAD52 homolog (Homo sapiens) (UniProt P43351) (assay: blockers of RAD52 strand annealing activity – biochemical, FRET, single point, set 2, primary screen (AID 651710)). Details: recombinant RAD52 DNA annealing, FRET fluorescence; at 18.7 µM; stronger effect = higher value.
`CN1CCC(Nc2ccc(F)c(Cl)c2)CC1` was tested, and the inhibition was inactive: -5.17%. For `O=c1[nH]c2ccccc2n1C1CCN(C(c2cc3ccccc3o2)c2nnnn2C2CCCC2)CC1` (stereo unspecified), the inhibition was inactive: -2.2%. `CCCOc1ccc(C(=O)NCC2(N(C)C)CCCCC2)cc1` was tested, and the inhibition was inactive: -11.2%. `NN(c1ccccc1)C1CCN(CCc2ccccc2)CC1` was tested, and the inhibition was inactive: -16.6%. With `O=C(O)C1(Nc2ccccc2)CCN(Cc2ccccc2)CC1` the inhibition was inactive: -9.14%. For `CC(C)(C)OC(=O)N1CCC(Nc2ccccc2)CC1`, the inhibition was inactive: -0.039%. In the case of `COc1cccc(C(=O)N(c2cc(C)cc(C)c2)C2CCN(C(=O)OC(C)(C)C)CC2)c1`, the inhibition was inactive: -4.54%. In the case of `COc1cc(OC)cc(C(=O)NCC2(N3CCOCC3)CCCCC2)c1`, the inhibition was inactive: -27.9%. With `COc1cccc(C(c2nnnn2C2CCCC2)N2CCC(n3c(=O)[nH]c4ccccc43)CC2)c1OC` (stereo unspecified) the inhibition was inactive: -16%. With `CN1CCC(Nc2ccc(Cl)cc2)CC1` the inhibition was inactive: 12.8%. In the case of `COc1cc(OC)cc(C(=O)NCC2(N3CCCCC3)CCCCC2)c1`, the inhibition was inactive: -11.9%. `O=c1[nH]c2ccccc2n1C1CCN(C(c2ccnc3ccccc23)c2nnnn2C2CCCCC2)CC1` (stereo unspecified) was tested, and the inhibition was inactive: -22.4%. `CCC(c1nnnn1C1CCCCC1)N1CCC(n2c(=O)[nH]c3ccccc32)CC1` (stereo unspecified) was tested, and the inhibition was inactive: -11.1%. For `COc1cccc(C(c2nnnn2C2CCCCC2)N2CCC(n3c(=O)[nH]c4ccccc43)CC2)c1OC` (stereo unspecified), the inhibition was inactive: -16.7%. With `CC(=O)N(c1ccccc1)C1CCNCC1` the inhibition was inactive: -4.07%. With `Cc1ccc(NC2(C#N)CCN(Cc3ccccc3)CC2)cc1` the inhibition was inactive: 2.54%. In the case of `Fc1ccccc1NC1CCN(Cc2ccccc2)CC1`, the inhibition was inactive: 5.85%. With `Cc1ccc(C(=O)NCC2(N3CCCCC3)CCCCC2)o1` the inhibition was inactive: -12.9%. With `COc1ccc(C(c2nnnn2C2CCCCC2)N2CCC(n3c(=O)[nH]c4ccccc43)CC2)cc1` (stereo unspecified) the inhibition was inactive: 5.31%. With `CC(C)(C)n1nnnc1C(c1ccnc2ccccc12)N1CCC(n2c(=O)[nH]c3ccccc32)CC1` (stereo unspecified) the inhibition was inactive: -18.5%. In the case of `Cc1ccccc1NC1(C#N)CCN(Cc2ccccc2)CC1`, the inhibition was inactive: -5.39%. With `CN(C)c1ccc(C(=O)NCC2(N3CCCCC3)CCCCC2)cc1` the inhibition was inactive: -7.08%. For `Cn1c(=O)[nH]cc(N(CCCl)CCCl)c1=O`, the inhibition was inactive: -8.55%. For `O=C(NCC1(N2CCCCC2)CCCCC1)c1ccco1`, the inhibition was inactive: -86.7%. In the case of `CC(C)(C)OC(=O)N1CCC(N(C(=O)c2ccccc2)c2ccc(Cl)cc2)CC1`, the inhibition was inactive: 3.65%. With `N#Cc1ccc(C(=O)NCC2(N3CCCCC3)CCCCC2)cc1` the inhibition was inactive: -16.7%.
